Test results as given in patent US20140171466A1, “PAIN MANAGEMENT IN SICKLE CELL ANEMIA” (priority 2012, published 2014).

The chains behind the UniProt entries cited, without tags or fusion partners.
UniProt P35372, whole entry: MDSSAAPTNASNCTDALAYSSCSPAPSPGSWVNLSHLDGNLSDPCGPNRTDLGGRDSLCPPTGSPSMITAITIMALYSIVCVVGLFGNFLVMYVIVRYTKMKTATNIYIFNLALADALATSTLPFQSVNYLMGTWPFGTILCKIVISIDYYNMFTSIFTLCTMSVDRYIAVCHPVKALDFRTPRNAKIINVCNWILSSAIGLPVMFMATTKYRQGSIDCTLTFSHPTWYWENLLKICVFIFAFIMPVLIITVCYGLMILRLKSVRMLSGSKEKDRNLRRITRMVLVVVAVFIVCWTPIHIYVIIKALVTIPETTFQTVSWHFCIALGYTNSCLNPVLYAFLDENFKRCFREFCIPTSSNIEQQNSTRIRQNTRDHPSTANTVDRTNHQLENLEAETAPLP

Tests used:
mu opioid receptor = mu opioid receptor (Homo sapiens, UniProt P35372); assay: [35S]GTPγS binding assay μ; settings: read-out: [35S]GTPγS μ EC50
mice = assay: Development of analgesic tolerance, acute pain tail-flick assay; settings: 1 mg/kg, after 10 days of daily dosing

Structure (SMILES) | EC50 (mu opioid receptor) [nM] | tail-flick latency after repeated dosing (analgesic tolerance) (mice)
O=C1Cc2ccccc2N1C1CCN(C2C3CCCC2CCC3)CC1 (stereo not shown) | 30 | –
O=C1Cc2ccccc2N1C1CCN(C2CCCCCCC2)CC1 [Compound 3, 1-(1-cyclooctylpiperidin-4-yl)-indolin-2-one] | 99 | –
CC(C)C1CCC(N2CCC(N3C(=O)Cc4ccccc43)CC2)CC1 (stereo not shown) | 73 | maintains its tail-flick latency
